Test results reported in patent US10688105B2 (dated 2020).

Tested on: RAFLS p-gp over expression
Test: MTT cytotoxicity assay, RAFLS overexpressed with P-gp
Settings: RAFLS p-gp over expression vs RAFLS

Row | Structure (SMILES) | Resistant Factor
1 | C[C@@H]1C[C@H]2[C@@H]3CCC4=CC(=O)C=C[C@]4(C)[C@@]3(F)[C@@H](O)C[C@]2(C)[C@@]1(O)C(=O)CO [Dexamethasone, dexamethasone] | 3.33
2 | C[C@]12C=CC(=O)C=C1CC[C@@H]1[C@@H]2[C@@H](O)C[C@@]2(C)[C@H]1CC[C@]2(O)C(=O)CO [Prednisolone, prednisolone] | 1.76
